Data reported in PubChem BioAssay AID1499 (Sanford-Burnham Center for Chemical Genomics, 2009).
The entries are a selection whose mix differs from that of the whole data set. Some tests of the compounds listed are not included; inactive here does not mean inactive elsewhere. Calls of active or inactive are those of the source.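 Rule for the calls: active = 10 µM primary screen giving 50% or more activity, confirmed by 40% or more on retest at that dose; inactive = the rest.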

By UniProt entry, the sequences of proteins in these tests, tags left out.
UniProt P05107, whole entry, looked up: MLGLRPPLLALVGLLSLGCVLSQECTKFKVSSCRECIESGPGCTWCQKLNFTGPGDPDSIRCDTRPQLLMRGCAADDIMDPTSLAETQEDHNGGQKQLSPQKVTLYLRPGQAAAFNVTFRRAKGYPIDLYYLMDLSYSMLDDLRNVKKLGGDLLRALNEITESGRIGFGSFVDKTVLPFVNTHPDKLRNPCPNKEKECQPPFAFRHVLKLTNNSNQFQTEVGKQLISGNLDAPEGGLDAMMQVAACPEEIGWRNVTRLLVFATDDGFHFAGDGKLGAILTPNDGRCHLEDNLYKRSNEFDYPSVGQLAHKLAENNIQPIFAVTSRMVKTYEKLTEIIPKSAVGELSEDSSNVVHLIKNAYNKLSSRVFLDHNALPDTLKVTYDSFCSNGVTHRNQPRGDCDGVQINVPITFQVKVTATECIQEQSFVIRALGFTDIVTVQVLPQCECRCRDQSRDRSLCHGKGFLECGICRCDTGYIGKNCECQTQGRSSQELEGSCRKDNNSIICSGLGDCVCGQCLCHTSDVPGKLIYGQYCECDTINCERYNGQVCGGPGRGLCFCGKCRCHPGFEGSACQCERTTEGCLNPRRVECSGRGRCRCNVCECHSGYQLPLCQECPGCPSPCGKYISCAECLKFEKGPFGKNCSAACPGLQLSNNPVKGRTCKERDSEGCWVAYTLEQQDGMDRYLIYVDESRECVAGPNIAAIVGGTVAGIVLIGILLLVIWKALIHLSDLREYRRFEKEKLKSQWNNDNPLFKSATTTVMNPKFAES

What follows are compounds tested against Integrin beta-2 (Homo sapiens) + Integrin alpha-M (Homo sapiens) (UniProt P05107+P11215) (assay: agonists of integrin CD11b/CD18-fibrinogen binding – K562 cells, luminescence, primary screen (AID 1499)). Conditions: K562 CD11b/CD18 adhesion to fibrinogen, ATPlite luminescence; at 10 µM; active compounds read high.
CN(C)C1CCCC1OC(=O)C(O)(c1ccccc1)c1ccccc1 (stereo not drawn) was tested, and the activation was inactive: 2.6%.
For O=C(OC1CN2CCC1CC2)C(CO)(c1ccccc1)c1ccccc1 (stereo not drawn), the activation was inactive: 3.5%.
CN(C)c1cccc(C(=O)NCC2(N(C)C)CCCCC2)c1 was tested, and the activation was inactive: -0.8%.
